Test results reported in PMC5059489, “Mechanistic evaluation and transcriptional signature of a glutathione S-transferase omega 1 inhibitor” (Nature Communications, 2016).

Protein sequences, listed by entry. Tags and fused reporters are not part of them.
UniProt P78417, whole entry: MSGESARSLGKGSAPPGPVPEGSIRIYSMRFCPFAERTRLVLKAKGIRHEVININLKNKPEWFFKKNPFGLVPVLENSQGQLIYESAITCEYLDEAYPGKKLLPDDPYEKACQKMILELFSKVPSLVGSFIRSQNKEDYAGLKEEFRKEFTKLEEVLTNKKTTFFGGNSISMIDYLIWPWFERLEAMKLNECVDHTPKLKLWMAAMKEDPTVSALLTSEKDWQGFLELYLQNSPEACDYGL

Experiments:
[1] = biological target: endogenous GSTO1 (Homo sapiens, UniProt P78417); experiment: In-gel fluorescence competitive CMFDA binding assay, endogenous GSTO1 in HCT116; settings: inhibition of CMFDA binding
[2] = biological target: T1, recombinant GSTO1 (Homo sapiens, UniProt P78417); experiment: In-gel fluorescence competitive CMFDA binding assay, recombinant GSTO1; settings: inhibition of CMFDA binding
[3] = biological target: T1, recombinant GSTO1; experiment: GSTO1 substrate assay (reduction of 4-NPG)
[4] = test system: HCT116p53+/+ cell; experiment: MTT cell proliferation at single concentration; assay type: cell-based, human

O=C(CCl)Nc1cccc(-c2nnc3n2CCCCC3)c1
GSTO binding assay (% Inhibition at 10 µM) Endogenous [1]: 63.0% | GSTO binding assay (% Inhibition at 10 µM) Recombinant [2]: 56.6% | GSTO substrate assay % Inhibition at 10 µM ([3]; 10 µM): 89.8% | IC50 ([3]; read-out: GSTO substrate assay IC50, cluster screening tables): 4.79 µM | % Inhibition of HCT116p53+/+ cell proliferation at 10 µM [4]: 36.5%
